Patent US9181236B2, “2-spiro-substituted iminothiazines and their mono-and dioxides as bace inhibitors, compositions and their use” (Merck Sharp & Dohme Corp., priority 2011, dated 2015)

The chains behind the UniProt entries cited, without tags or fusion partners. Residues count along the entry.
UniProt P56817, 75-416 limits assumed: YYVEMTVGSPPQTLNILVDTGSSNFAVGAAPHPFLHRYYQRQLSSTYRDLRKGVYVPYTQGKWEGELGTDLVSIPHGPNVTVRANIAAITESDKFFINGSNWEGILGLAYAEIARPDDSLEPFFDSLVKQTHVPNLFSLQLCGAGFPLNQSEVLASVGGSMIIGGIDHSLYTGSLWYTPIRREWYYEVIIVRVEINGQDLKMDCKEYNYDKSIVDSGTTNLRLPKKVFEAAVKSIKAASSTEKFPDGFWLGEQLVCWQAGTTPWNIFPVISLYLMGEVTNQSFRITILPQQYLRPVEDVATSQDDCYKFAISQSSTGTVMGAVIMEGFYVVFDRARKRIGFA

Molecular target: soluble human BACE1 catalytic domain (Homo sapiens (Human), UniProt P56817)
Experiment: BACE1 HTRF FRET Assay
Assay type: biochemical
Conditions: read-out: BACE1 Ki; Ki calculated from IC50 using the Cheng-Prusoff equation

Ki	SMILES
5.1 nM	C[C@@]1(c2cc(Nc3noc4cc(Cl)cnc34)ccc2F)CS(=O)(=O)[C@@]2(CCOC2)C(=N)N1
24.1 nM	COc1cnc(C(=O)Nc2ccc(F)c([C@]3(C)CS(=O)(=O)C4(COC4)C(=N)N3)c2)cn1
727 nM	C[C@@]1(c2ccccc2F)CS(=O)(=O)C2(CCCC2)C(=N)N1

SMILES	Ki
COc1cccc2cc(-c3ccc(F)c([C@]4(C)CS(=O)(=O)C5(CCCC5)C(=N)N4)c3)[nH]c12	930 nM
